Measured values from paper PMC4295023 (Investigational New Drugs, 2014).

Test: Pharmacokinetic analysis of blood samples (noncompartmental)
Assay type: in vivo, human
Details: sorafenib, steady state (cycle 2), HCC patients, tivantinib 360 mg BID and sorafenib 400 mg BID
Method: Blood samples were collected pre-, 1, 2, 4, 6, 8, 12, and 24 h post-dose on Days 1 and 2 of Cycles 1 and 2. The day before and on the day of PK sampling, tivantinib and sorafenib were administered at the same time. Noncompartmental PK parameters were calculated using WinNonlin (Pharsight, Mountain View, CA).

With `CNC(=O)c1cc(Oc2ccc(NC(=O)Nc3ccc(Cl)c(C(F)(F)F)c3)cc2)ccn1` [sorafenib] as the compound, how does the “mean Cmax” value read?
Its value is 5,920 ± 2,526 ng/mL.
